The assay addresses human plasminogen (human) (UniProt P00747). The experiment in a line: SPR. To be noted: natural protein.

Protein sequences, listed by entry. Tags and fused reporters are not part of them. Residues count along the entry.
UniProt P00747, 20-810: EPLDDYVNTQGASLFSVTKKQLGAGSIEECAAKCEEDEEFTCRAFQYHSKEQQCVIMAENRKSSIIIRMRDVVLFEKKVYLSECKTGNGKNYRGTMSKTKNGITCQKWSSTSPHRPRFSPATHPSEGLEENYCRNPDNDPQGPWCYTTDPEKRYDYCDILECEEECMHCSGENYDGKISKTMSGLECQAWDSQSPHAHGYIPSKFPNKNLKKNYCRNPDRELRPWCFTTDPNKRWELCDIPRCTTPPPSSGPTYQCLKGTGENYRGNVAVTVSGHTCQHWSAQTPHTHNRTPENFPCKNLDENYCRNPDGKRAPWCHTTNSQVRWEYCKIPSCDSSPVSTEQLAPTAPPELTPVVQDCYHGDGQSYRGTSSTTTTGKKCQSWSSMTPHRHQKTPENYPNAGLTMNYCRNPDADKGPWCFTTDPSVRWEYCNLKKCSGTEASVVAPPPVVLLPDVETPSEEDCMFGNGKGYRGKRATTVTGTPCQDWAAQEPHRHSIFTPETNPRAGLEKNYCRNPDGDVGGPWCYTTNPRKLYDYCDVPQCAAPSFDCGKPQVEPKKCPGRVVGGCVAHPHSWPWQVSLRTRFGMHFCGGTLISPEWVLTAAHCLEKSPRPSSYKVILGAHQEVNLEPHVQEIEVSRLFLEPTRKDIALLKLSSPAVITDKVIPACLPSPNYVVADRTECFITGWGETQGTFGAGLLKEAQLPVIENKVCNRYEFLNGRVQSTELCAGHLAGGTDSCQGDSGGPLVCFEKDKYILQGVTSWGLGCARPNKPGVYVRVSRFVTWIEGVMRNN

In general, Kd refers to the equilibrium constant for the complex coming apart. A low value points to higher affinity.

“recombinant α-enolase of Streptococcus oralis SV18 (IPM …) (from UniProt A0A1X1IR15 1-434)” showed an equilibrium dissociation constant (Kd) of 200 nM. In other words, the sub-micromolar range.

Source of the values: paper PMC2972214.
